Values quoted from earlier work in US10874724B2, “Enzymatic immunomodulation of solid tumors and uses thereof” (University of Houston System, priority 2015, dated 2020).

The chains behind the UniProt entries cited, without tags or fusion partners.
UniProt P27487, whole entry, species assumed: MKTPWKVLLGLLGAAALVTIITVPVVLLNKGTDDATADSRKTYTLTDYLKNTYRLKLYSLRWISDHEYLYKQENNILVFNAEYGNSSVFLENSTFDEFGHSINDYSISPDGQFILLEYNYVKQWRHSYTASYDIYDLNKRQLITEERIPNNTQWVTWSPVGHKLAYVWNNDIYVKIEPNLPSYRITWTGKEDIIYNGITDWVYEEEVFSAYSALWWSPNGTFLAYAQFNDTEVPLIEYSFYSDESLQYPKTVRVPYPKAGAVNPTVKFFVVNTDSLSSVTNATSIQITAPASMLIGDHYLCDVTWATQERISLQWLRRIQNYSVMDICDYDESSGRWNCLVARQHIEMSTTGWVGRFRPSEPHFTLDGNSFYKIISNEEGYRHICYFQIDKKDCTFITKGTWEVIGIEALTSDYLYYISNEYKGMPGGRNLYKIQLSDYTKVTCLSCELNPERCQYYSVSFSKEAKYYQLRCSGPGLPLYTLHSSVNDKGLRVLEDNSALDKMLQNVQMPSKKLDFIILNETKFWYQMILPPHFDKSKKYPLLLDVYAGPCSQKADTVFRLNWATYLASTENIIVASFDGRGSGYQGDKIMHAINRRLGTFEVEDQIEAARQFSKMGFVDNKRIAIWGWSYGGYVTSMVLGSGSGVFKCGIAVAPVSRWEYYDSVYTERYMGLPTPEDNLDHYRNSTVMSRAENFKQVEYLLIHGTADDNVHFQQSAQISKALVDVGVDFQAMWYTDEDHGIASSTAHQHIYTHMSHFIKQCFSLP

B1: ADA: Adenosine deaminase (EC 3.5.4.4), enzyme degrading Ado into inosine and ammonia (protein, UniProt P00813 2-363, looked up)
Adenosine deaminase: AQTPAFDKPKVELHVHLDGSIKPETILYYGRRRGIALPANTAEGLLNVIGMDKPLTLPDFLAKFDYYMPAIAGCREAIKRIAYEFVEMKAKEGVVYVEVRYSPHLLANSKVEPIPWNQAEGDLTPDEVVALVGQGLQEGERDFGVKARSILCCMRHQPNWSPKVVELCKKYQQQTVVAIDLAGDETIPGSSLLPGHVQAYQEAVKSGIHRTVHAGEVGSAEVVKEAVDILKTERLGHGYHTLEDQALYNRLRQENMHFEICPWSSYLTGAWKPDTEHAVIRLKNDQANYSLNTDDPLIFKSTLDTDYQMTKRDMGFTEEEFKRLNINAAKSSFLPEDEKRELLDLLYKAYGMPPSASAGQNL
B2: mADA: recombinant purified mouse adenosine deaminase (protein, UniProt P03958 2-352, looked up)
Adenosine deaminase: AQTPAFNKPKVELHVHLDGAIKPETILYFGKKRGIALPADTVEELRNIIGMDKPLSLPGFLAKFDYYMPVIAGCREAIKRIAYEFVEMKAKEGVVYVEVRYSPHLLANSKVDPMPWNQTEGDVTPDDVVDLVNQGLQEGEQAFGIKVRSILCCMRHQPSWSLEVLELCKKYNQKTVVAMDLAGDETIEGSSLFPGHVEAYEGAVKNGIHRTVHAGEVGSPEVVREAVDILKTERVGHGYHTIEDEALYNRLLKENMHFEVCPWSSYLTGAWDPKTTHAVVRFKNDKANYSLNTDDPLIFKSTLDTDYQMTKKDMGFTEEEFKRLNINAAKSSFLPEEEKKELLERLYREYQ

Biological target: CD26 (Homo sapiens, UniProt P27487)
Conditions: independent of catalytic activity; cited from earlier work

Molecule | Binding to CD26
B1 | nanomolar affinity
B2 | does not bind
